Measured values as given in patent US20260055079A1, “PHTHALAZINONE COMPOUNDS AS PARP7 INHIBITORS” (AZKARRA THERAPEUTICS, INC., priority 2022, published 2026).

By UniProt entry, the sequences of proteins in these tests, tags left out. Residues count along the entry.
UniProt Q7Z3E1, whole entry: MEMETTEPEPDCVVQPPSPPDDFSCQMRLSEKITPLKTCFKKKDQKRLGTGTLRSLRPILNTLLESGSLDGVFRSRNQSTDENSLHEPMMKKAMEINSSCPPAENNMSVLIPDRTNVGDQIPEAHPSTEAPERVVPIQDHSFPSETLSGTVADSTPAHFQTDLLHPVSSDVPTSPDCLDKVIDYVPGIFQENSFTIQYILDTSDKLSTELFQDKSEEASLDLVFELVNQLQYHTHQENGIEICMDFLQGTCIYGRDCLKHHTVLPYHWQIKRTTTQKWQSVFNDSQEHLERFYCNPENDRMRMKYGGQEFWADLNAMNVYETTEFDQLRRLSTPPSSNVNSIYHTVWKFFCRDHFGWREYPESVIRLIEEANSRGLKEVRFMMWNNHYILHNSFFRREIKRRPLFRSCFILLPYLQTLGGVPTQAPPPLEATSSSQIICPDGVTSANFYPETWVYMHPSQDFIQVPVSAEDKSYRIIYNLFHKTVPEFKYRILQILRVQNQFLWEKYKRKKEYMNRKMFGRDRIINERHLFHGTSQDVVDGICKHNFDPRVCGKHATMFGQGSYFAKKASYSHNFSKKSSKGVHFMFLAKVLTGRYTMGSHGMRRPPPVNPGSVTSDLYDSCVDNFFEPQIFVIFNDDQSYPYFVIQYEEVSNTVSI
UniProt Q9H0J9, 484-698 limits assumed: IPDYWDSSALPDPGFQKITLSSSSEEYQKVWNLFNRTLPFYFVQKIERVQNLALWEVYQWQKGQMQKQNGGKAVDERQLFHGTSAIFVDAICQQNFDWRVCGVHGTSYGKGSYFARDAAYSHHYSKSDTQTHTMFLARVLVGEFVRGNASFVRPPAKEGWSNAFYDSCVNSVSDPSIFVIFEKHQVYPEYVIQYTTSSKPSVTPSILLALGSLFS
UniProt Q9Y6F1, whole entry: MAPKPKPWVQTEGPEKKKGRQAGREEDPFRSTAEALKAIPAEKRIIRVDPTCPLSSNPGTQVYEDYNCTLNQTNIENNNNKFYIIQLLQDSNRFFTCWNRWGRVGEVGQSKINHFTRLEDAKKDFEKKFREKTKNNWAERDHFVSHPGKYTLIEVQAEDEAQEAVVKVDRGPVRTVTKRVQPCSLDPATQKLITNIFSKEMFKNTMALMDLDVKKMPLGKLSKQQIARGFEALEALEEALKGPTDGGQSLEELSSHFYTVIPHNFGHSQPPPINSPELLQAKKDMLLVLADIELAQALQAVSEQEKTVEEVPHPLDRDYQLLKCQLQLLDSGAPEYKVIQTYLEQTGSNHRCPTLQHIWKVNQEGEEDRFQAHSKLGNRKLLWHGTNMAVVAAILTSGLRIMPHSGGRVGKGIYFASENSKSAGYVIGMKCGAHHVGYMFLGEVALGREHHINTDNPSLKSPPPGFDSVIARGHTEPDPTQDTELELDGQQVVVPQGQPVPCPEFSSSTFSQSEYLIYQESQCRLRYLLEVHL

Experiments:
His-GST-PARP7 = His-GST-PARP7 (Homo sapiens (Human), UniProt Q7Z3E1); test: PARP7 biochemical assay; conditions: read-out: PARP7 IC50
[1] = tested on: NCI-H1373 (human lung adenocarcinoma) cells; test: Cell proliferation assay (CellTiter-Glo), NCI-H1373; assay type: cell-based; conditions: read-out: NCI-H1373 GI50, 6 days
PARP12cat = PARP12cat (Homo sapiens (Human), UniProt Q9H0J9); test: PASTA biochemical PARP screening assay, PARP12cat; conditions: read-out: IC50 PARP12cat
PARP3 = PARP3 (Homo sapiens (Human), UniProt Q9Y6F1); test: PASTA biochemical PARP screening assay, PARP3; conditions: read-out: IC50 PARP3
GST-tagged PARP7 = GST-tagged PARP7 (Homo sapiens (Human), UniProt Q7Z3E1); test: PASTA biochemical PARP screening assay, PARP7

| Structure (SMILES) | IC50 (His-GST-PARP7) [nM] | GI50 [1] [nM] | IC50 (PARP12cat) [nM] | IC50 (PARP3) [nM] | more potent against PARP7 compared to all other PARP family members (GST-tagged PARP7) |
| --- | --- | --- | --- | --- | --- |
| CN(c1cncc(C#N)c1)C1CN(C(=O)c2cc(Cc3n[nH]c(=O)c4ccc(OC5CCC5)cc34)ccc2F)C1 | 50 to 100 | > 5000 | – | – | – |
| N#Cc1ccc(N2CCN(C(=O)c3cc(Cc4n[nH]c(=O)c5ccccc45)ccc3F)CC2)nc1 | – | – | > 3000 | 32 | at least 12 fold |
| CN1CCN(C(=O)c2cc(Cc3n[nH]c(=O)c4ccc(Oc5ccc(C(N)=O)cc5)cc34)ccc2F)CC1 | 500 to 2000 | – | – | – | – |
